The nature of series [1]: In vitro transdermal electrotransport fentanyl flux, two-compartment diffusion cell.
The conditions of series [2]: simple diffusion, citrate buffer pH 5; cited from earlier work.
Series [3] can be described thus: Transdermal electrotransport flux / delivery efficiency of sufentanil (no method given).

This is a selection: effects in other tests are not listed, and their absence says nothing.

Consider `CCC(=O)N(c1ccccc1)C1CCN(CCc2ccccc2)CC1`, for which the “time to steady state transdermal flux” value in series [1] (constant DC 200 μA (100 μA/cm^2), 16 h, average of 6 runs) worked out at 8 h. The “normalized transdermal fentanyl flux (percentage of steady state flux)” value in series [1] (fentanyl HCl concentrations above about 6 mg/mL) is recorded as 100%.

For `CCC(=O)N(c1ccccc1)C1(COC)CCN(CCc2cccs2)CC1`, the plasma concentration entry in series [2] is given as “did not produce any detectable plasma concentration”. Also, the “minimum sufentanil salt concentration below which transdermal electrotransport flux becomes dependent on concentration” value is on record as “about 1.7 mM” in series [3] (aqueous donor reservoir solution) and “about 1 mg/mL” in series [3] (aqueous solution, equivalent of 1.7 mM). Moreover, the “transdermal electrotransport delivery efficiency (rate delivered per unit of applied current) relative to fentanyl” value in series [3] (fraction of that of fentanyl) is reported as “about one-third”.

These data come from patent publication US6881208B1.
